Assay: Sublimation using conventional sucrose-chlorate pyrotechnic composition

Work on triethanolamine borate yielded a sublimation temperature of under 250 °C.
